Paper PMC3072460 (The Journal of nutritional biochemistry, 2010)

The chains behind the UniProt entries cited, without tags or fusion partners. Where a name states a change or a piece, a line headed by the entry shows the natural chain unless it says otherwise.
UniProt P43116: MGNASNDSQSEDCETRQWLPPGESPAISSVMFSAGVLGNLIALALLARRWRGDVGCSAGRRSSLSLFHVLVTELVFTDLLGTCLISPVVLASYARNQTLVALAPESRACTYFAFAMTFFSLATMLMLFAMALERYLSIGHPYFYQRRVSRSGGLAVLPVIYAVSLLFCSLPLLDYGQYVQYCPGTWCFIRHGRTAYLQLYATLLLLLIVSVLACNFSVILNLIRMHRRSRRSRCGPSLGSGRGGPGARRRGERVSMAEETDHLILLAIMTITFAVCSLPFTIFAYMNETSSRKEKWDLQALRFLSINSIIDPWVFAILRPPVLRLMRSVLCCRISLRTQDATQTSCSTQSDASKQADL

Target: prostanoid EP2 receptor (Homo sapiens, UniProt P43116)
Assay: radioligand competition with 3H-PGE2 on transfected whole cells
Assay type: cell-based

EC50: 62 nM
Compound: CCCCC[C@H](O)/C=C/[C@H]1[C@H](O)CC(=O)[C@@H]1C/C=C\CCCC(=O)O [PGE2]
